Test results reported in US20230255884A1, “FINISHED FIBROUS SRUCTURES AND METHODS OF THEIR USE AND PREPARATION” (CLEXIO BIOSCIENCES LTD., priority 2019, published 2023).

Assay: Example 15: % Add on from aqueous (70%) ethanol (30%) composition, 50° C.
Type: physicochemical
Conditions: 10% lidocaine, 10% PEG 400, 10% propylene glycol, 2% Polysorbate 80; 91.4% polyamide/8.6% elastane, 1 h

CCN(CC)CC(=O)Nc1c(C)cccc1C [Lidocaine, lidocaine]
percentage Add on: 56%
